# From PubChem BioAssay
# Hits are enriched below; roughly 16% of the tested compounds scored in any of these assays.
# uPA surface inh – cell surface uPA generation inhibition; cell surface uPA generation assay, qHTS; Potency, µM (doses to about 38.3 µM), for the others: top-dose activity change, negative = inhibition, usual class: inhibitors; 0.31% of 330,000 active; active = well fitted inhibition curve with a large enough effect; inconclusive = small, poorly fitted or top-dose-only effect; inactive = no such curve, though single readings can be large or run the other way; tested in mouse RAW 264.7 cells; also: potency is read from the fitted curve at half-maximal effect; % is scaled to controls: 0 for no effect and ±100 for the full control effect; nearly all actives have a fitted effect of over 55% in size
# DT40 TDP1 CPT – growth inhibition of DT40 Tdp1-/-;hTDP1 cells with camptothecin (screen for TDP1 inhibitors). chicken DT40 Tdp1-/-;hTDP1 cells + 20 nM CPT, ATP luminescence, 48 h. 12% of 420,000 active. Potency, µM (highest dose often 46.2 µM), without a hit: at the top dose activity change, negative = growth inhibition, most hits filed as inhibitors; also: potency is read from the fitted curve at half-maximal effect; % is scaled to controls: 0 for no effect and ±100 for the full control effect; nearly all actives have a fitted effect of over 55% in size
#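 Chicken DT40 Tdp1-/- cells stably complemented with human TDP1 were seeded at 400 cells/well in medium containing 20 nM camptothecin, exposed to pin-transferred compounds, and grown at 37 °C for at least 48 hr. Viability was read as ATP luminescence.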
# miR-21 reporter – miR-21 reporter, rising signal; Potency, µM (titrated, usually from 38.3 µM), without a hit: at the highest dose reporter change, positive = more light; AID 2288; 340,000 tested, under 10 active; HeLa miR-21 FLuc reporter, luciferase, 48 h; active = well fitted rising curve with a large enough effect; inconclusive = small, poorly fitted or top-dose-only effect; inactive = no such curve, though single readings can be large or run the other way;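 note: % of control where 0% means no effect; miR-21 action dims this reporter so a rising signal means less miR-21 action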
#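 HeLa miR-21-FLuc reporter line, endogenous miR-21; 2000 cells/well in DMEM/10% FBS; compound titration up to ~40uM final, 48 h, 37 degree Celsius; luciferase detection reagent, 15 min lysis, CCD luminescence.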
# DT40 TDP1 no CPT – qHTS for Inhibitors of human tyrosyl-DNA phosphodiesterase 1 (TDP1): qHTS in cells in absence of CPT; DT40 Tdp1-/- hTDP1 cells, no CPT, ATP luminescence, 48 h; Potency, µM (top dose mostly 46.2 µM), for inactives: top-dose activity change, negative = growth inhibition, usual class: inhibitors; 15% of 420,000 active; AID 686978, 2013; also: potency is read from the fitted curve at half-maximal effect; % is scaled to controls: 0 for no effect and ±100 for the full control effect; nearly all actives have a fitted effect of over 55% in size
#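 A cellular qHTS used chicken DT40 cells lacking endogenous Tdp1 but carrying stably transfected human TDP1. Compounds were applied without camptothecin, and cell growth kinetics were judged by ATP-dependent luminescence after ≥48 hr.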
# TDP1 block – inhibitors of human tyrosyl-DNA phosphodiesterase TDP1; recombinant TDP1, AlphaScreen DNA substrate cleavage; AID 485290; Q9NUW8; Potency, µM (highest dose often 130 µM), inactives show top-dose activity change, negative = inhibition, usual class: inhibitors; 0.28% of 350,000 active; also: potency is read from the fitted curve at half-maximal effect; % is scaled to controls: 0 for no effect and ±100 for the full control effect; nearly all actives have a fitted effect of over 40% in size
#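 E. coli-derived human Tdp1, 1 nM final. Cpd preinc 15 min RT; substrate 15 nM final, 5 min RT; AS bead mix 10 ug/ml final, 10 min RT. Signal loss = tyrosine-FITC cleavage. No-enzyme wells = max signal.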
# Numbers without * were called inactive; ? = inconclusive; · = not tested or not shown. Unless noted, calls follow the shape of the dose curve; as a rule, active = well fitted curve in the direction sought with a large enough effect; inconclusive = small, poorly fitted or top-dose-only effect, or another doubt; inactive = no such curve, though single readings can be large; an effect the other way counts as inactive or inconclusive.
# Sample of the layout, 2 compounds:
1: O=C(Nc1ccc2nc(SCC(=O)N3CCOCC3)sc2c1)c1ccc(Cl)cc1
2: O=C1CC(c2c(F)cccc2Cl)c2c(c3ccccc3oc2=O)O1 (stereo unspecified)

Screen / compound no.	1	2
uPA surface inh	·	·
DT40 TDP1 CPT	?	1.4%
miR-21 reporter	20.3%	-6.1%
DT40 TDP1 no CPT	7.31µM*	2.2%
TDP1 block	4.7%	5.8%

# The listing, repeating the preview:
1: O=C(Nc1ccc2nc(SCC(=O)N3CCOCC3)sc2c1)c1ccc(Cl)cc1
2: O=C1CC(c2c(F)cccc2Cl)c2c(c3ccccc3oc2=O)O1 (stereo unspecified)
3: CCN(CC)S(=O)(=O)c1ccc(C)c(NCC(=O)Nc2ccc(C#N)c(Cl)c2)c1
4: CN(C)S(=O)(=O)c1cc(NC(=O)C[N+]23CCN(CC2)CC3)ccc1Cl
5: CCC(=O)OC1CCC2C3CCC4CC(=O)C=CC4(C)C3CCC12C (stereo unspecified)
6: O=C(O)CC1OCC=C2CN3CCC45C6=CC(=O)C(=O)C([N+](=O)[O-])=C6NC4C1C2CC35 (stereo unspecified)
7: O=C(O)CC1OCC=C2CN3CCC45c6ccccc6NC4C1C2CC35 (stereo unspecified)
8: C=CCC[C@@H](Cc1ccc(F)cc1)C(=O)OC[C@H](Cc1c[nH]c2ccccc12)NC(=O)[C@H](CC=C)CC(=O)N(CCO)Cc1ccccc1
9: C=CC[C@@H](CC(=O)N[C@H](CO)Cc1ccccc1)C(=O)N[C@@H](COC(=O)[C@@H](CC=C)CC(=O)OC(C)(C)C)Cc1c[nH]c2ccccc12
10: ClCCNc1nc2ccc(Cl)cc2[nH]1

Screen / compound no.	1	2	3	4	5	6	7	8	9	10
uPA surface inh	·	·	-7.3%	0.8%	-12.1%	0.8%	5.0%	?	19.0%	-3.2%
DT40 TDP1 CPT	?	1.4%	16.4µM*	-6.1%	-71.0%	14.1µM*	9.2%	14.6µM*	16.4µM*	?
miR-21 reporter	20.3%	-6.1%	?	-7.0%	·	4.8%	-1.3%	·	·	-32.0%
DT40 TDP1 no CPT	7.31µM*	2.2%	14.6µM*	1.3%	20.6µM*	11.2µM*	2.4%	20.6µM*	?	?
TDP1 block	4.7%	5.8%	0.0%	-3.5%	·	-0.6%	·	3.6%	1.3%	2.1%

11: CCOC(=O)c1c(-c2ccc(OC)cc2)oc2ccc(OC(=O)N(C)C)cc12
12: COC(=O)[C@@H]1[C@H]2CC[C@@H](C[C@H]1OC(=O)c1ccccc1)N2C
13: O=C(NC1CC2CCCC(C1)N2)c1ccccc1 (stereo unspecified)
14: CSc1ccc(C(=O)C2CCCN(Cc3cccnc3)C2)cc1 (stereo unspecified)
15: O=C(c1ccc(Cl)cc1)C1CCCN(Cc2cccn2-c2cccnc2)C1 (stereo unspecified)
16: COC(=O)C1=C(c2cccc(OCc3ccccc3)c2)C[C@@H]2CC[C@H]1N2C(=O)NCc1ccc(OC)c(OC)c1
17: COC(=O)C1=C(c2cccc(OCc3ccccc3)c2)C[C@@H]2CC[C@H]1N2C(=O)NCc1ccccc1
18: COC(=O)C1=C(c2cccc(OCc3ccccc3)c2)C[C@@H]2CC[C@H]1N2C(=O)NCc1ccc(Cl)cc1
19: COC(=O)C1=C(c2ccc(OCc3ccccc3)cc2)C[C@@H]2CC[C@H]1N2C(=O)NCc1ccc(C(C)(C)C)cc1
20: COC(=O)C1=C(c2cccc(OCc3ccccc3)c2)C[C@@H]2CC[C@H]1N2C(=O)NCc1cccc(C(F)(F)F)c1

Screen / compound no.	11	12	13	14	15	16	17	18	19	20
uPA surface inh	-8.7%	·	-6.1%	-2.8%	-8.3%	-1.1%	?	?	·	?
DT40 TDP1 CPT	?	12.0%	7.5%	?	?	16.4µM*	?	?	11.6µM*	20.6µM*
miR-21 reporter	13.4%	·	-5.0%	11.6%	-8.2%	·	·	·	·	·
DT40 TDP1 no CPT	18.4µM*	-3.8%	4.7%	?	13µM*	14.6µM*	?	?	9.2µM*	16.4µM*
TDP1 block	-4.1%	·	-0.5%	2.7%	2.8%	0.2%	0.9%	-0.5%	·	-0.1%

# Next section.
# Short forms: A = uPA surface inh; B = DT40 TDP1 CPT; C = miR-21 reporter; D = DT40 TDP1 no CPT; E = TDP1 block
21: COC(=O)C1=C(c2ccc(OCc3ccccc3)cc2)C[C@@H]2CC[C@H]1N2C(=O)NCc1ccc(OC)cc1
  A = ·; B = 7.31µM*; C = ·; D = 6.51µM*; E = ·

22: COC(=O)C1=C(c2ccc(OC)c(OC)c2)C[C@@H]2CC[C@H]1N2C(=O)NCc1cccc2ccccc12
  A = 10.8%; B = ?; C = ·; D = ?; E = -2.9%

23: COC(=O)C1=C(c2ccc(OCc3ccccc3)cc2)C[C@@H]2CC[C@H]1N2C(=O)NCc1ccc2c(c1)OCO2
  A = ·; B = 5.8µM*; C = ·; D = 4.11µM*; E = ·

24: COC(=O)C1=C(c2cccc(OCc3ccccc3)c2)C[C@@H]2CC[C@H]1N2C(=O)NCc1ccccc1OC
  A = 14.1µM*; B = ?; C = ·; D = 23.1µM*; E = 1.9%

# Values in list order from above:
# miR-21 reporter, nos. 1–10: 20.3%, -6.1%, ?, -7.0%, ·, 4.8%, -1.3%, ·, ·, -32.0%
